Measured values published in patent US9636336B2, “Aminoester derivatives” (CHIESI FARMACEUTICI S.p.A., priority 2015, dated 2017).
Like-named read-outs stand apart in the source and are kept apart here.

Chains of the proteins cited; added tags and fusions are not shown. A line that says so, or that is headed by a name, gives the form on record, which may keep a tag or linker.
UniProt Q07343, other isoform, or with tags, fused parts or gaps: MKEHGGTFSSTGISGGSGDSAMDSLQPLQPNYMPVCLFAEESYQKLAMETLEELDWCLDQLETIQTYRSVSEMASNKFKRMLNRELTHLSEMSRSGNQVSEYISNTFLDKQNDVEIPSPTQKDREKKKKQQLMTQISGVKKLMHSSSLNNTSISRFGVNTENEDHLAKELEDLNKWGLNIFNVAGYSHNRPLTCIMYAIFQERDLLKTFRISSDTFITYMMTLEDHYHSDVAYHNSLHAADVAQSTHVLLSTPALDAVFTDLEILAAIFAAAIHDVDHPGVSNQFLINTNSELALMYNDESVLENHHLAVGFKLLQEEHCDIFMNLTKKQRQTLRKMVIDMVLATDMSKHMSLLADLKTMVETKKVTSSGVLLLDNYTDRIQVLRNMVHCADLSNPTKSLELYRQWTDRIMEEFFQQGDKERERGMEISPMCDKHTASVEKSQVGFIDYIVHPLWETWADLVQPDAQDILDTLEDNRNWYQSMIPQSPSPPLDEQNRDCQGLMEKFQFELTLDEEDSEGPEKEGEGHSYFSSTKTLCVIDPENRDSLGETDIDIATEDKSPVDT

Molecular target: Human recombinant PDE4B2 (Homo sapiens (Human), UniProt Q07343)
Test: PDE4B2 HTRF assay
Type: biochemical
Method: PDE4B2 activity is detected using the LANCE Ultra cAMP homogeneous time resolved fluorescence resonance energy transfer (TR-FRET) assay from Perkin Elmer. The assay is based on the competition between the europium (Eu) chelate-labeled cAMP tracer and sample cAMP for binding sites on cAMP-specific monoclonal antibodies (mAb) labelled with the ULight™ dye. The assay is carried out in 384-well low volume plates in a volume of 10 μl. Human recombinant PDE4B2 (80 pM) is incubated for 2 h with 3 nM cAMP in buffer containing 1×HBSS, 5 mM HEPES, 3 mM MgCl2, 0.1% BSA, pH 7.4 with or without test compounds. The enzymatic reactions are efficiently stopped by the addition of 500 μM IBMX present in the combined Stop/Detection buffer containing europium (Eu) chelate-labeled cAMP tracer and cAMP-specific monoclonal antibodies (mAb) labelled with the ULight™ dye. […] IC50 values are determined from competition curves using a non-linear curve fitting program.

Row | SMILES | IC50 (PDE4B2 HTRF assay) [nM] | IC50 [nM]
1 | COc1ccc([C@H](Cc2c(Cl)c[n+]([O-])cc2Cl)OC(=O)c2ccc(CNC(C(=O)OC[C@H]3CCCN3C)c3ccccc3)s2)cc1OC (stereo partly drawn) [Example 15, [(1S)-2-(3,5-dichloro-1-oxido-pyridin-1-ium-4-yl)-1-(3,4-dimethoxyphenyl)ethyl] 5-[[[2-[[(2R)-1-methylpyrrolidin-2-yl]methoxy]-2-oxo-1-phenyl-ethyl]amino]methyl]thiophene-2-carboxylate] | 1 to 10 | 
2 | COc1ccc([C@H](Cc2c(Cl)c[n+]([O-])cc2Cl)OC(=O)c2ccc(CNC(C(=O)OC[C@@H]3CCN3C)c3ccccc3)s2)cc1OC (stereo partly drawn) [Example 27, [(1S)-2-(3,5-dichloro-1-oxido-pyridin-1-ium-4-yl)-1-(3,4-dimethoxyphenyl)ethyl] 5-[[[2-[[(2S)-1-methylazetidin-2-yl]methoxy]-2-oxo-1-phenyl-ethyl]amino]methyl]thiophene-2-carboxylate] | 1 to 10 | 
3 | COc1ccc([C@H](Cc2c(Cl)c[n+]([O-])cc2Cl)OC(=O)c2ccc(CNC(C(=O)OC[C@H]3CCN3C)c3ccccc3)s2)cc1OC (stereo partly drawn) [Example 28, [(1S)-2-(3,5-dichloro-1-oxido-pyridin-1-ium-4-yl)-1-(3,4-dimethoxyphenyl)ethyl] 5-[[[2-[[(2R)-1-methylazetidin-2-yl]methoxy]-2-oxo-1-phenyl-ethyl]amino]methyl]thiophene-2-carboxylate] | 1 to 10 | 
4 | COc1ccc([C@H](Cc2c(Cl)c[n+]([O-])cc2Cl)OC(=O)c2ccc(CNC3(C(=O)OCC4CCN(C)CC4)CCc4ccccc43)s2)cc1OC (stereo partly drawn) [Example 38, [(1S)-2-(3,5-dichloro-1-oxido-pyridin-1-ium-4-yl)-1-(3,4-dimethoxyphenyl)ethyl]5-[[[1-[(1-methyl-4-piperidyl)methoxycarbonyl]indan-1-yl]amino]methyl]thiophene-2-carboxylate] |  | 1 to 10
